From US5308605A, “Diagnosis of tumors with 5-radioiodo-2'-deoxyuridine” (priority 1992, dated 1994)
Read-outs that look alike come from different tables or passages of the source.

Assays:
[1] = test system: 9 L gliosarcoma; assay: Scintigraphic imaging of brain tumors after intratumor injection
[2] = test system: 9 L gliosarcoma; assay: Biodistribution 40 h after injection in brain tumor-bearing rats
[3] = test system: murine ovarian tumor (MOT); assay: Biodistribution after i.p. injection in ovarian tumor-bearing mice; conditions: 24 h after last of 5 i.p. injections
[4] = test system: transitional cell carcinoma of the bladder; format: in vivo, Fisher 344 rats
Source text: No carrier added [^125 I/^131 I] IUdR was synthesized as described previously, see U.S. Pat. No. 4,851,520 hereby incorporated by reference, and purified on a C18 reverse phase HPLC column. The radiochemical purity of the product was>99% as determined by TLC with specific activities of 81.40 TBq/mmol and 96.94 GBq/mmol for [^125 I] IUdR and [^131 I] IUdR, respectively.
The carcinogen N-methyl-N-nitrosourea (MNU), known to induce transitional cell carcinoma of the bladder, was instilled directly into the bladder lumen of 4-to-5-week old female Fisher 344 rats (20 animals) via bladder catheterization using a 22-gauge angiocatheter (1.5 mg/0.15 ml saline intravesically, every other week for a total of 4 doses). The drinking water was supplemented with a combination of trimethoprim-sulfamethoxasole, neomycin sulfate and polymixin B. Twelve to sixteen weeks after the last MNU infusion, the bladder was catheterized and emptied and [^125 I/^131 I ]IUdR (6. 4 to 10. 9 MBq [^125 I]IUdR [172 to 294 μCi] and 10.7 MBq [^131 I ]IUdR [290 μCi]) was administered through the catheter in a 100- or 200- μl volume and left in place for 2 h. The bladder contents were then withdrawn and the bladder rinsed with normal saline (5×1-ml). Nontumor-bearing control rats (16 animals) were injected by the same route with identical amounts of [^125 I/^131 I]IUdR. The drinking water of all animals was supplemented with 0. 1% potassium iodide from 48 to 72 h prior to the administration of the radiopharmaceutical up to the time of sacrifice. The tumor-bearing rats and the non-tumor bearing control rats were divided into Group A consisting of 12 tumor-bearing and 12 control rats, and Group B consisting of 8 tumor-bearing and 4 control rats. Group A was sacrificed 48 hours after administration of the radiopharmaceutical while Group B was sacrificed one (1) week after administration of the radiopharmaceutical.
Several animals also presented additional squamous metaplasia. […] These latter animals also frequently developed stones and calcifying and/or ossifying fibrosis of the bladder wall.
The biodistribution studies were conducted at 48 hours and at 1 week after administration of radiolabeled IUdR in order to quantitate the in vivo distribution of the radiopharmaceutical in terms of percent injected dose per gram of tissue (%ID/g) and to derive tumor to normal tissue ratios. Various organs and tissues of interest were excised, rinsed, blotted dry, weighed, and their radioactive content was determined in a gamma counter along with that of urine, stomach contents, blood and bone marrow.

[5] = 48 h, papillary carcinoma group

SMILES: O=c1[nH]c(=O)n([C@H]2C[C@H](O)[C@@H](CO)O2)cc1I [^123 IUdR, 5-iodo-2'-deoxyuridine]
- scintigraphic activity in the thyroid ([1]; 1 h, potassium iodide in drinking water): No activity was seen in the thyroid
- ratio of mean counts per pixel in head, tumor-bearing vs control ([1]; 1 h after injection): at least twice
- scintigraphic activity in stomach and bladder ([1]; 1 h post injection): Activity in the stomach and the bladder was also evident
- ratio of mean counts per pixel in head, tumor-bearing vs control (maximum) ([1]; 38 h): 3.8
- persistence of activity in the head ([1]; tumor-bearing animals, images 12-38 h): persistence of the activity within the same region in all tumor-bearing animals
- right brain/blood ratio [2]: 9
- right brain/frontal lobes ratio [2]: 71
- right brain/left brain ratio [2]: 22
- tumor to normal tissue ratio, all tissues [2]: eight
- activity in all other normal tissues ([2]; exception of stomach and bladder): low with the exception of the stomach and the bladder
- injected dose associated with tumor ([2]; one animal, tumor precisely excised): 12 % of the injected dose

SMILES: O=c1[nH]c(=O)n([C@H]2C[C@H](O)[C@@H](CO)O2)cc1I [^125 IUdR, 5-iodo-2'-deoxyuridine]
- tumor-to-normal-tissue ratio, organs with nondividing cells ([3]; brain, heart): over 400
- tumor-to-normal-tissue ratio, organs with actively proliferating cells ([3]; uterus, intestine, stomach): 20
- tumor to normal tissue ratio, all ([4]; 1 week, group A, FIG. 4): above one
- tumor to normal tissue ratio, liver ([4]; 1 week, group A, FIG. 4): 147.7
- tumor to normal tissue ratio, normal bladder ([4]; 1 week, group A, FIG. 4): 65.7
- tumor to normal tissue ratio, small intestine ([4]; 1 week, group A, FIG. 4): 5.0
- tumor to normal tissue ratio, all tissue groups ([4]; 48 h, FIG. 2, bladder of tumor-bearing / normal tissues of control): above 1
- tumor to normal tissue ratio, bone ([4]; 48 h, hyperplasia group): 2.0
- tumor to normal tissue ratio, muscle ([4]; 48 h, hyperplasia group): 43.2
- tumor to normal tissue ratio, normal bladder ([4]; 48 h, hyperplasia group): 12.2
- tumor to normal tissue ratio, bone [4, 5]: 4.4
- tumor to normal tissue ratio, muscle [4, 5]: 92.5
- tumor to normal tissue ratio, normal bladder [4, 5]: 26.2
